The values that follow come from patent US20230131808A1, “PEGYLATED INTERFERON TAU AND COMPOSITIONS AND METHODS THEREOF” (priority 2020, published 2023).

For this assay, the system named is ZIKV (PRVABC59). The assay can be described thus: Anti-Zika virus (ZIKA/PRVABC59) CPE assay in Huh-7 cells. It is filed as cell-based.

“IFN-β: IFN beta, type I interferon used as control in the anti-ZIKV CPE assay”: the “Average Activity(%)” value by setting is: (0.06 IU/ml) 8.47%; (0.32 IU/ml) 9.30%; (1.60 IU/ml) 23.79%; (8.00 IU/ml) 69.21%; (40.00 IU/ml) 90.30%; (200.00 IU/ml) 96.36%. For the same substance, the EC50 (Huh-7 cells, ZIKA/PRVABC59, CPE) is listed as 4.10 IU/ml.
